Publication PMC5586252, “PP2A-B′ holoenzyme substrate recognition, regulation and role in cytokinesis” (Cell Discovery, 2017)

Target: GST-tagged KIAA1524 (CIP2A) peptide (B′-binding motif) (human)
Assay: BLI; GST-tagged peptides (300 nM) on anti-GST sensors; B′α, B′γ1 or PP2A-B′γ1 holoenzyme 0–30 μM in the mobile phase; 25 mM Tris pH 8.0, 100 mM NaCl, 3 mM DTT; 1:1 model

Q: With “B′γ1 regulatory subunit (from UniProt Q13362-2 1-449) (natural protein)” as the substance, how does the Kd read?
A: 300 nM
